Reference: US9932349B2 (priority 2000, dated 2018)
Several values for one entry are separate records, joined by “and”; a condition that tells them apart may be missing. Equal entries are not always repeated.

By UniProt entry, the sequences of proteins in these tests, tags left out. Where a name states a change or a piece, a line headed by the entry shows the natural chain unless it says otherwise.
UniProt P41144: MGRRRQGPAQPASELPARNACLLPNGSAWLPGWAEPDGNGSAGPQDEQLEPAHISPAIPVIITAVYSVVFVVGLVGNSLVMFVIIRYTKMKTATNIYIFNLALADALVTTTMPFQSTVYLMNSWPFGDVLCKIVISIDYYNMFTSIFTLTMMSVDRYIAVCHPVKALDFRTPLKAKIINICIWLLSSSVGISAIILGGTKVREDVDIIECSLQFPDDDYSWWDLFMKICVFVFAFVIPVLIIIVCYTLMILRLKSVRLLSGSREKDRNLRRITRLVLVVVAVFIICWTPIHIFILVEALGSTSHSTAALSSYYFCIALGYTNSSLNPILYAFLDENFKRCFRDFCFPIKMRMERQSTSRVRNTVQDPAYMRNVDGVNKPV

Biological target: T1, κ opioid receptor (Cavia porcellus, UniProt P41144)
T1 construct: determined in guinea pig brain cells; from tissue; host or cells: guinea pig brain
Assay: biochemical
Assay type: binding, guinea pig
Settings: Ki [3H] U69,593 (κ)

Structure (SMILES) | Ki
C[C@H]1C2Cc3ccc(C(N)=O)cc3[C@@]1(C)CCN2CC1CC1 (racemic) [Example 4, (±)-3-(Cyclopropylmethyl)-1,2,3,4,5,6-hexahydro-cis-6,11-dimethyl-2,6-methano-3-benzazocin-8-carboxamide] | 0.53 nM and 0.6 nM and 0.42 nM
CC1C2Cc3ccc(C(N)=O)cc3C1(C)CCN2CC1CC1 (single isomer, unassigned) [Example 4b] | 67 ± 1.6 nM
